# From patent US20210253598A1, “ARYL ANNULATED MACROCYCLIC INDOLE DERIVATIVES” (priority 2017, published 2021)
# Amino acid sequences for entries named in this document (tags omitted). Residues count along the entry.
# UniProt P10415, 1-211: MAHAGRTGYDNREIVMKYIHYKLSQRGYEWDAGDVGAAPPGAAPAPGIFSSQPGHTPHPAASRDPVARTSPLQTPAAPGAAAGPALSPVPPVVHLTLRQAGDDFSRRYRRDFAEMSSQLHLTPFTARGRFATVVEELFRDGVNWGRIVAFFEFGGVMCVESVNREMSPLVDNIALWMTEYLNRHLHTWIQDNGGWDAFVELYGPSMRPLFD
# UniProt Q07817, 1-212: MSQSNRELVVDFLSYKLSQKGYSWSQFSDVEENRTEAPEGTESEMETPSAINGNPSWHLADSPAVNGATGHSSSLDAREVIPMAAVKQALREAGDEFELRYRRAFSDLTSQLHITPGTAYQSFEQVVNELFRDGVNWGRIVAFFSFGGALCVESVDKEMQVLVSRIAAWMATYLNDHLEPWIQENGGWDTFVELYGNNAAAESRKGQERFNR
# Several values for one entry are separate records, joined by “and”; a condition that tells them apart may be missing. Identical values can stand only once. Like-named read-outs stand apart in the source and are kept apart here.
# Experiments:
# A2780 = experiment: Anti-proliferative effect in A2780 cells, CellTiter-Glo (Assay 7)
# SUDHL10 [1] = experiment: Induction of cytotoxicity in SUDHL10 cells, CellTiter-Glo (Assay 6)
# BCL-2 = BCL-2 (Homo sapiens, UniProt P10415); experiment: Protein-protein interaction assay BCL-2/Bad BH3 peptide, TR-FRET (BCL-2 assay, Assay 3); assay type: binding; conditions: read-out: BCL-2 Assay [M] (median), His-BCL-2 / Bad BH3 peptide, tested form: N-ethylethanamine (diethylamine) salt
# SUDHL5 [2] = experiment: Anti-proliferative effect in SUDHL5 cells, CellTiter-Glo (Assay 7); assay type: cell-based
# AMO-1 = experiment: Anti-proliferative effect in AMO-1 cells, CellTiter-Glo (Assay 7)
# SUDHL5 [3] = experiment: Induction of caspase-3/7 activity in SUDHL5 cells (Assay 4); assay type: cell-based
# SUDHL10 [4] = experiment: Induction of caspase-3/7 activity in SUDHL10 cells (Assay 4); assay type: cell-based
# SUDHL5 [5] = experiment: Induction of cytotoxicity in SUDHL5 cells, CellTiter-Glo (Assay 6); assay type: cell-based
# BCL-XL = BCL-XL (Homo sapiens, UniProt Q07817); experiment: Protein-protein interaction assay BCL-XL/Bad BH3 peptide, TR-FRET (BCL-XL assay, Assay 2); assay type: binding; conditions: read-out: BCL-XL Assay [M] (median), His-BCL-XL / Bad BH3 peptide, tested form: N-ethylethanamine (diethylamine) salt
# MCL-1 [6] = target: T1, MCL-1 (Homo sapiens, UniProt Q07820, K194A/K197A/R201A); experiment: Protein-protein interaction assay MCL-1/Noxa BH3 peptide, TR-FRET (MCL-1 assay, Assay 1); assay type: binding
# SUDHL10 [7] = experiment: Anti-proliferative effect in SUDHL10 cells, CellTiter-Glo (Assay 7); conditions: read-out: Antiproli SUDHL10 [M] (median), SUDHL10, 72 hours incubation, tested form: N-ethylethanamine (diethylamine) salt
# MCL-1 [8] = target: T1, MCL-1; experiment: Protein-compound interaction assay, surface plasmon resonance (SPR assay, Assay 8); assay type: binding; conditions: immobilized MBP-MCL-1, 25° C., geometric mean, tested form: N-ethylethanamine (diethylamine) salt
# MV-4-11 = experiment: Anti-proliferative effect in MV-4-11 cells, CellTiter-Glo (Assay 7)
# MCL1 protein = MCL1 protein (Homo sapiens, UniProt Q07820); experiment: PIxEL: protein-protein interaction in permeabilized cells by ELISA (Assay 5); assay type: cell-based; conditions: read-out: PIxEL [M] (median), permeabilized RKO cells, biotin-BIM BH3 peptide 0.2 μM, serum free, tested form: N-ethylethanamine (diethylamine) salt
# [9] = read-out: Antiproli A2780, A2780, 72 hours incubation, several values per example, tested form: N-ethylethanamine (diethylamine) salt
# [10] = read-out: Antiproli SUDHL5 [M] (median), SUDHL5, 72 hours incubation, tested form: N-ethylethanamine (diethylamine) salt
# [11] = read-out: Caspase SUDHL5 [M] (median), SUDHL5, 3 hours treatment, Caspase-Glo 3/7, tested form: N-ethylethanamine (diethylamine) salt
# [12] = read-out: Caspase SUDHL10 [M] (median), SUDHL10, 3 hours treatment, Caspase-Glo 3/7, tested form: N-ethylethanamine (diethylamine) salt
# [13] = read-out: Cytotox SUDHL5 [M] (median), SUDHL5, 5 hours incubation, tested form: N-ethylethanamine (diethylamine) salt
# [14] = read-out: MCL-1 Assay [M] (median), MBP-MCL-1 / Noxa BH3 peptide, tested form: N-ethylethanamine (diethylamine) salt
# [15] = read-out: Antiproli MV-4-11, MV-4-11, 72 hours incubation, several values per example, tested form: N-ethylethanamine (diethylamine) salt
# [16] = read-out: Antiproli A2780, A2780, 72 hours incubation, several values per example
# [17] = read-out: Cytotox SUDHL10 [M] (median), SUDHL10, 5 hours incubation
# [18] = read-out: Antiproli SUDHL5 [M] (median), SUDHL5, 72 hours incubation
# [19] = read-out: Caspase SUDHL5 [M] (median), SUDHL5, 3 hours treatment, Caspase-Glo 3/7
# [20] = read-out: Caspase SUDHL10 [M] (median), SUDHL10, 3 hours treatment, Caspase-Glo 3/7
# [21] = read-out: Cytotox SUDHL5 [M] (median), SUDHL5, 5 hours incubation
# [22] = read-out: MCL-1 Assay [M] (median), MBP-MCL-1 / Noxa BH3 peptide
Compound,IC50 (A2780; [9]),IC50 (SUDHL5 [2]; [10]) [M],EC50 (SUDHL5 [3]; [11]) [M],EC50 (SUDHL10 [4]; [12]) [M],IC50 (SUDHL5 [5]; [13]) [M],IC50 (MCL-1 [6]; [14]) [M],Kd (MCL-1 [8]) [nM],koff (MCL-1 [8]) [s⁻¹],kon [1/M 1/s] (MCL-1 [8]),IC50 (MV-4-11; [15]),IC50 (MCL1 protein) [M],IC50 (A2780; [16]),IC50 (SUDHL10 [1]; [17]) [M],IC50 (SUDHL5 [2]; [18]) [M],EC50 (SUDHL5 [3]; [19]) [M],EC50 (SUDHL10 [4]; [20]) [M],IC50 (SUDHL5 [5]; [21]) [M],IC50 (MCL-1 [6]; [22]) [M],also measured
CCc1nn(CCN2CCOCC2)c2c1-c1c(Cl)ccc3c(CCCOc4cccc5ccccc45)c(C(=O)O)n(c13)Cc1ccccc1COC2 [Example 34],5.03 µM and 4.68 µM,4.8e-07,4.9e-07,1e-06,6.8e-07,6.6e-10,4,0.008,2.0E6 1/M 1/s,1730 nM and 1510 nM and 1950 nM,1.11e-06,,,,,,,,"IC50 (SUDHL10 [1]; read-out: Cytotox SUDHL10 [M] (median), SUDHL10, 5 hours incubation, tested form: N-ethylethanamine (diethylamine) salt): 1.4e-06 M; IC50 (BCL-2): > 2e-05 M; IC50 (AMO-1; read-out: Antiproli AMO-1, AMO-1, 72 hours incubation, several values per example, tested form: N-ethylethanamine (diethylamine) salt): 2.95 µM; IC50 (BCL-XL): > 2e-05 M; IC50 (SUDHL10 [7]): 1.2e-06 M"
Cc1c2c(nn1C)COCc1ncccc1Cn1c(C(=O)O)c(CCCOc3cccc4ccccc34)c3ccc(Cl)c-2c31,,,,,,,,,,,,19.5 µM,3.5e-06,1.5e-06,1.5e-06,3e-06,1.7e-06,1.1e-09,"IC50 (AMO-1; read-out: Antiproli AMO-1, AMO-1, 72 hours incubation, several values per example): 11.4 µM"
CCc1nn(CCN2CCOCC2)c2c1-c1c(Cl)ccc3c(CCCOc4cccc5ccccc45)c(C(=O)O)n(c13)Cc1ccccc1COC2 [Example 35],9.21 µM,7.1e-06,4.2e-06,1.3e-05,7e-06,5.4e-09,110,0.066,5.8E5 1/M 1/s,11900 nM,1.85e-05,,,,,,,,
CCc1nn(CCN2CCOCC2)c2c1-c1c(Cl)ccc3c(CCCOc4cccc5ccccc45)c(C(=O)O)n(c13)Cc1ccccc1COC2,,,,,,,,,,,,9.04 µM and 6.67 µM,3.5e-06,1.9e-06,1.9e-06,4.9e-06,1.6e-06,1.7e-09,"IC50 (MV-4-11; read-out: Antiproli MV-4-11, MV-4-11, 72 hours incubation, several values per example): 3980 nM and 4970 nM"
